From patent US10927085B2, “1,2-naphthoquinone based derivative and method of preparing the same” (HUEN Co., Ltd., priority 2013, dated 2021)

By UniProt entry, the sequences of proteins in these tests, tags left out.
UniProt P15559, whole entry, species assumed: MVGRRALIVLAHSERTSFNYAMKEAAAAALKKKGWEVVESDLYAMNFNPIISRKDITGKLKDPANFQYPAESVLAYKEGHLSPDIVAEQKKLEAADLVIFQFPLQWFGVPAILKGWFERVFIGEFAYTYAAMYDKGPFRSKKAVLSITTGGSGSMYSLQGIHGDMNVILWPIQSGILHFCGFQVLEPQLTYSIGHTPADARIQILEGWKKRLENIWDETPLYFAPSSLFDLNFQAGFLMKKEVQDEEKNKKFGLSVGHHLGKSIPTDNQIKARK

Legend:
NQO1 protein = NQO1 protein (Homo sapiens, UniProt P15559); assay: NQO1 activity measurement (cytochrome C reduction); format: biochemical
Protocol: An enzyme reaction solution included 25 mM Tris/HCl (pH 7.4), 0.14% bovine serum albumin, 200 μM NADH, 77 μM cytochrome C, and 5 ng of NQO1 protein. Enzymatic reaction was initiated by adding NADH and performed at 37° C. In this regard, a reaction rate was measured by observing absorbance, which was increased due to reduction of cytochrome C, at 550 nm for 10 minutes and NQO1 activity was represented as an amount of reduced cytochrome C [nmol cytochrome C reduced/min/μg protein].
Extinction coefficient for cytochrome C:21.1 mmol/L/cm=21.1 μmol/ml/cm

C57BL/6J Lep ob/ob mice = assay: Weight loss effects in obese mice (ob/ob); details: mouse, in vivo, po
Protocol: 6.5 week-old C57BL/6J Lep ob/ob mice having genetic obesity characteristics available from ORIENTBIO were prepared. Two mice were raised in each polycarbonate breeding cage (200 W×260 L×130H (mm), Three-shine) in which temperature was 22 to 24° C., relative humidity was 30 to 50%, illuminance was 150 to 300 lux, night and day were 12 hours, and exhaust was performed at 10 to 15 air changes per hour. As a feed, low fat diet (11.9 kcal % fat, 5053, Labdiet) manufactured by ORIENTBIO was used. The feed was contained in a feeder and free intake was allowed. As drinking water, water, which was contained in a 250 mL polycarbonate based bottle, purified through a filter and a sterilizer was used and free intake was allowed.
The Compounds According to Examples 1 and 2 synthesized in the present invention were orally administered to three C57BL/6J Lep ob/ob mice in an amount of 100 mg/kg, respectively, once every day for two weeks. For administration, a disposable syringe fitted with a sonde for oral administration was used and 10 ml/kg of the compound was orally administered into the stomach. As controls, three C57BL/6J Lep ob/ob mice were administered 0.1% SLS in an amount of 100 mg/kg in the same manner as described above. After administration, a time-dependent weight increase ratio was measured and results are illustrated in FIG. 1 below.
Weights of the experimental animals were measured immediately before administration of a test material and six times a week from an administration initiation day to a test termination day. Increased total weights were calculated by subtracting weights measured on an experiment initiation day from weights measured one day before an experiment termination day. Food intake amounts were calculated by measuring feed supply amounts and remaining amounts twice a week from an initiation day of test material administration to a test termination day for each individual.
Experiments were performed under the same conditions as in Experimental Example 3-1 except that 10.5 week-old C57BL/6J Lep ob/ob mice having genetic obesity characteristics available from ORIENTBIO were prepared, the compounds according to Examples 4 and 5 were administered to three C57BL/6J Lep ob/ob mice in an amount of 150 mg/kg, 150 mg/kg of 0.1% SLS was administered to each of three C57BL/6J Lep ob/ob mice as controls, and experiments were performed for a total of six days. Weight increase ratios, weight change, and intake amounts depending on administration time were measured and results are illustrated in FIG. 2 below. […]

Compound: CN(C)Cc1nc2c(o1)-c1ccccc1C(=O)C2=O [Example 5, 2-((dimethylamino)methyl)naphtho[2,1-d]oxazole-4,5-dione]
- NQO1 activity (5 μM, [nmol cytochrome C reduced/min/μg protein]) (NQO1 protein): 259.5 nmol cytochrome C reduced/min/μg protein
- weight increase ratio vs controls (FIG. 2) (C57BL/6J Lep ob/ob mice; 150 mg/kg): significantly decreased

Compound: COc1cccc2c1-c1oc(CN(C)C)nc1C(=O)C2=O [Example 11, 2-((dimethylamino)methyl)-9-methoxynaphtho[2,1-d]oxazole-4,5-dione]
- NQO1 activity (5 μM, [nmol cytochrome C reduced/min/μg protein]) (NQO1 protein): 149.2 nmol cytochrome C reduced/min/μg protein

Compound: O=C1C(=O)c2oc(-c3ccccc3)nc2-c2ccccc21 [Example 27]
- NQO1 activity (5 μM, [nmol cytochrome C reduced/min/μg protein]) (NQO1 protein): 241.9 nmol cytochrome C reduced/min/μg protein
- weight increase ratio vs controls (FIG. 4) (C57BL/6J Lep ob/ob mice; 100 mg/kg): significantly decreased

Compound: CC(C)(C)c1nc2c(o1)C(=O)C(=O)c1ccccc1-2 [Example 28, 2-tert-butylnaphtho[1,2-d]oxazole-4,5-dione]
- NQO1 activity (5 μM, [nmol cytochrome C reduced/min/μg protein]) (NQO1 protein): 254.9 nmol cytochrome C reduced/min/μg protein
- weight increase ratio vs controls (FIG. 3) (C57BL/6J Lep ob/ob mice; 100 mg/kg): significantly decreased

Compound: CC(C)(C)c1nc2c(o1)C(=O)C(=O)c1cc(N)ccc1-2 [Example 30, 7-amino-2-tert-butylnaphtho[1,2-d]oxazole-4,5-dione]
- NQO1 activity (5 μM, [nmol cytochrome C reduced/min/μg protein]) (NQO1 protein): 213.0 nmol cytochrome C reduced/min/μg protein
- weight increase ratio vs controls (FIG. 5) (C57BL/6J Lep ob/ob mice; 150 mg/kg): significantly decreased

Compound: CC(C)(C)c1nc2c(o1)C(=O)C(=O)c1cc(Cl)ccc1-2 [Example 31, 2-tert-butyl-7-chloronaphtho[1,2-d]oxazole-4,5-dione]
- NQO1 activity (5 μM, [nmol cytochrome C reduced/min/μg protein]) (NQO1 protein): 220.3 nmol cytochrome C reduced/min/μg protein
